Measurements from patent US20160296499A1, “Spiroindoline Antiparasitic Derivatives” (ZOETIS SERVICES LLC, priority 2013, published 2016).
pKi: −log10 of the molar value.

Chains of the proteins cited; added tags and fusions are not shown. Residues count along the entry.
UniProt E1BK36, 1-524: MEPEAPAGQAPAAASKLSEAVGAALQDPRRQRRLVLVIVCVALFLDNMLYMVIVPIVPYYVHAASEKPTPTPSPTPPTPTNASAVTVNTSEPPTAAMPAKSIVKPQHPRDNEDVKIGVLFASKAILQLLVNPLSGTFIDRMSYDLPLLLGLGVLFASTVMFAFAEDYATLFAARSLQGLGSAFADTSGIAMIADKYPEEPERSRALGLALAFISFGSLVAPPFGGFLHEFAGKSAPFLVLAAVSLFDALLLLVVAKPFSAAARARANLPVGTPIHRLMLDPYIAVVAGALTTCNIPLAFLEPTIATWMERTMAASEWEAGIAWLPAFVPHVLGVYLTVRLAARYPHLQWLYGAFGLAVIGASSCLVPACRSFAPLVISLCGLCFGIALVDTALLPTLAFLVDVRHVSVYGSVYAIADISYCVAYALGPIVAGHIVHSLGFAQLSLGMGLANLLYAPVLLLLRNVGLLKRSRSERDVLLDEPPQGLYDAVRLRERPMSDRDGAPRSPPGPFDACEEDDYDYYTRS

Target: bovine vesicular acetylcholine transporter (VAChT) (Bos taurus, UniProt E1BK36)
Assay: Radioligand Binding Assay
Conditions: read-out: Bovine binding Ki; CHO-K1 membranes with recombinant bovine VAChT, [3H]Compound X6 0.3 nM

Row | SMILES | pKi
1 | O=C(NCc1ccnc(Cl)c1)N1CC2(CCN(C/C=C/c3ccc(F)cc3)CC2)c2c1ccc1sncc21 | 7.05
2 | O=C(NCc1ccnc(Cl)c1)N1CC2(CCN(C/C=C/c3ccc(C(F)(F)F)cn3)CC2)c2c1ccc1sncc21 | 6.27
3 | O=C(NCc1ccnc(Cl)c1)N1CC2(CCN(Cc3ccc4cc(F)ccc4n3)CC2)c2c1ccc1sncc21 | 5.98
